The results in this text go back to patent publication US7848557B2, “Rapid multi-tracer PET imaging systems and methods” (priority 2007, dated 2010).

The conditions of the series: secondary tumor region (II), same dog; consistent with an under-perfused hypoxic region.

As for “Cu-diacetyl-bis[N4-methylthiosemicarbazone] [ATSM]”, the retention result was “prolonged retention”.
